Here are results for 28 molecules from PubChem BioAssay AID588492 (Sanford-Burnham Center for Chemical Genomics, 2011).

The list shows a part of the results, in another mix than the full data. Calls of active or inactive are those of the source.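 Rule for the calls: active = compounds giving at least 50% protection of heart cells from peroxide-induced death in the single-dose screen, raw or plate-pattern-corrected value; inactive = the rest.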

The nature of this assay: H9c2 cardiomyocyte survival under peroxide injury – uHTS, H9c2 cells, ATPLite luminescence, primary screen (AID 588492).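 Note: 0% = DMSO wells with peroxide and 100% = DMSO wells without peroxide.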 The settings on record: H9c2 cardiomyocytes, 2 h, at 20 µM, stronger effect = higher value. (Cellular ATP, detected with luciferase, serves as a proxy for viable cell number.)
As to `C(Cc1nn[nH]n1)Cc1nn[nH]n1`, the protection from H2O2 cell death is inactive: 3.2%.
In the case of `Nc1ccc([As](=O)(O)c2ccc([N+](=O)[O-])cc2)cc1` it was inactive: -2.1%.
As to `O=C(OC1CN2CCC1CC2)c1cccc(Cl)c1` (stereo not drawn), the protection from H2O2 cell death is inactive: 13.2%.
In the case of `CC(=O)NC(SC(=S)N(C)C)C(Cl)(Cl)Cl` (stereo not drawn) it was inactive: -6.3%.
In the case of `O=[N+]([O-])c1ncn(CCn2cnc([N+](=O)[O-])n2)n1` it was inactive: 0.7%.
Regarding `O=[N+]([O-])c1ccc(O)c(/C=N/Nc2ccc([N+](=O)[O-])cc2[N+](=O)[O-])c1`, the protection from H2O2 cell death is inactive: -21.2%.
On to `O=[As](O)(c1ccccc1)c1ccc(O)cc1`, for which the protection from H2O2 cell death is inactive: -2.8%.
To `C[C@H]1OP(=O)(Oc2ccccc2)[C@H](O)[C@H](O)[C@H]1N=[N+]=[N-]` (stereo partly drawn) belongs inactive: -1.3%; to `O=P(Nc1nc2ccccc2s1)(c1ccccc1)c1ccccc1`, inactive: 11.1%; to `COc1ccc(N)c([N+](=O)[O-])c1[N+](=O)[O-]`, inactive: 26.8%.
`Nc1ccc(CCCCOc2ccccc2)cc1`: the protection from H2O2 cell death is inactive: -9.2%.
In the case of `O=P(Nc1ccccn1)(c1ccc(Br)cc1)c1ccc(Br)cc1` it was inactive: 1.2%; in that of `c1nnnn1CCn1cnnn1`, inactive: 4.5%.
To `O=P(Nc1nccs1)(c1ccccc1)c1ccccc1` belongs inactive: 15.9%; to `CC(C)C(=O)NC(Sc1ccccc1)C(Cl)(Cl)Cl` (stereo not drawn), inactive: 0.7%.
To `CC(=O)Nc1ccc(Oc2c([N+](=O)[O-])cc([N+](=O)[O-])cc2[N+](=O)[O-])cc1` belongs inactive: -9.3%; to `CC(=O)Nc1ccc([As](=O)(O)O)c(O)c1`, inactive: 8.4%; to `COC(=O)C1(C)COP(=O)(NCc2ccccc2)OC1` (stereo not drawn), inactive: 6.1%.
Regarding `CC(=O)c1ccc(N2CC2c2ccncc2)cc1` (stereo not drawn), the protection from H2O2 cell death was inactive: 4.4%.
Turning to `N#C/C(=C\c1ccc(N(CCBr)CCBr)cc1)C(N)=O`, the protection from H2O2 cell death is inactive: 2.6%.
In the case of `C[C@H]1OP(=O)(Oc2ccccc2)C[C@@H]2O[C@@H]21` (stereo partly drawn) it was inactive: 2.7%; in that of `C[C@@H]1C=CCP(=O)(Oc2ccccc2)O1` (stereo partly drawn), inactive: 5.7%.
In the case of `Cc1ccccc1CN(C)C(=O)COC(=O)C(O)(c1ccccc1)c1ccccc1` it was inactive: -3.8%.
To `CCc1cc(O)c([N+](=O)[O-])c(C)c1[N+](=O)[O-]` belongs inactive: -0.2%; to `CC(C)(C)C(=O)NC(Sc1ccccc1)C(Cl)(Cl)Cl` (stereo not drawn), inactive: -8.7%.
With `CCOc1ccc(C2=NCC(CBr)S2)cc1` (stereo not drawn), the protection from H2O2 cell death is inactive: 3.7%.
Take `O=P1(Nc2nc3ccc(Cl)cc3s2)COc2ccccc2O1` (stereo not drawn): the protection from H2O2 cell death was inactive: 0.2%.
In the case of `O=c1c2cc([N+](=O)[O-])ccc2[nH]c2c([N+](=O)[O-])cc([N+](=O)[O-])cc12` it was inactive: -17.2%.
